Amino acid sequences for entries named in this document (tags omitted).
UniProt P35222, whole entry: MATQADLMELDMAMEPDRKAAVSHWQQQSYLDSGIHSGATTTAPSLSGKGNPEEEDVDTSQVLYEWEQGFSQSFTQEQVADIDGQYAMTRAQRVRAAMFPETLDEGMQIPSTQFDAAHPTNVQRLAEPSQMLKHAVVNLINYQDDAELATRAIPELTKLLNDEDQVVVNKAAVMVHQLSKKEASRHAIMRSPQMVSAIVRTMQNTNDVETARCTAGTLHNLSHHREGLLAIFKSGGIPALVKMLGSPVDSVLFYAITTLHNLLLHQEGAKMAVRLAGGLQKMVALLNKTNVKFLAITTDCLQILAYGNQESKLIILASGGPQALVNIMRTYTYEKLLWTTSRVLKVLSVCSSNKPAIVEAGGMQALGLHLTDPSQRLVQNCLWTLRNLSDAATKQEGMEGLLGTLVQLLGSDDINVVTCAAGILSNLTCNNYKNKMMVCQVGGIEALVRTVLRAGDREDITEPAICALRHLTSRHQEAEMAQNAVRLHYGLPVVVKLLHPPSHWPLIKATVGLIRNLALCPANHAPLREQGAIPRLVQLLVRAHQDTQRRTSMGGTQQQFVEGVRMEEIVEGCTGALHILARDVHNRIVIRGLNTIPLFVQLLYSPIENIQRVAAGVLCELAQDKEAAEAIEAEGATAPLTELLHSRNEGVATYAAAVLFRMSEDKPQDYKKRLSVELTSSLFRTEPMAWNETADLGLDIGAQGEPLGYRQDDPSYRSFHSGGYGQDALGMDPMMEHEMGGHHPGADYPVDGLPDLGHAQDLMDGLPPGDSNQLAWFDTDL

In patent US20240360179A1, “STAPLED PEPTIDES AND METHODS THEREOF” (FOG PHARMACEUTICALS, INC., priority 2021, published 2024):

Assays:
[1] = molecular target: T1, full-length B-Catenin (Uniprot ID P35222) (Homo sapiens, UniProt P35222); assay: biochemical; assay type: binding; details: beta-Catenin FP IC50 (nM), competition fluorescence polarization
T1 construct: 10 nM full-length B-Catenin (Uniprot ID P35222)

[2] = molecular target: beta-catenin/TCF4 interaction (Homo sapiens, UniProt P35222); assay: cell-based; design: host or cells: HEK293; details: NanoBRET Abs IC50 (uM)

Q: How did the IC50 [1] turn out when CC(=O)N1CCC[C@]12CC=CCCCC1(CCCC=CCCCOC(=O)N3CC[C@@]4(C3)NC(=O)[C@H](CCCCNC(=O)CC[C@@H](C(=O)N[C@@H](C)C(N)=O)NC(=O)[C@H](Cc3csc5ccccc35)NC(=O)[C@H](Cc3ccccc3Cl)NC4=O)NC(=O)[C@H](Cc3ccccc3)NC(=O)[C@H](C)NC(=O)C(C)(C)NC(=O)[C@H](Cc3cccc(C(=O)O)c3)NC(=O)[C@H](CC(=O)O)NC1=O)NC(=O)[C@H](CC(C)(C)C)NC(=O)[C@H](CC(=O)O)NC2=O (relative stereo) [I-296, Ac-PL3-Asp-Npg-B5-Asp-3COOHF-Aib-Ala-Phe-Lys*3-PyrS2-2ClF-BztA-GlnR*3-Ala-NH2] was run?
A: The IC50 was less than 50 nM.

Q: And the IC50 [2]?
A: Its IC50 is 1.5 to 3 µM.

Q: For CC(=O)N1CCC[C@]12CC=CCCCC1(CCCC=CCCCOC(=O)N3CC[C@@]4(C3)NC(=O)[C@H](CCCCNC(=O)CC[C@@H](C(=O)N[C@@H](C)C(N)=O)NC(=O)[C@H](Cc3csc5ccccc35)NC(=O)[C@H](Cc3ccccc3C#N)NC4=O)NC(=O)[C@H](Cc3ccccc3)NC(=O)[C@H](C)NC(=O)C(C)(C)NC(=O)[C@H](Cc3cccc(C(=O)O)c3)NC(=O)[C@H](CC(=O)O)NC1=O)NC(=O)[C@H](CC(C)(C)C)NC(=O)[C@H](CC(=O)O)NC2=O (relative stereo) [I-297, Ac-PL3-Asp-Npg-B5-Asp-3COOHF-Aib-Ala-Phe-Lys*3-PyrS2-2CNF-BztA-GlnR*3-Ala-NH2], which IC50 [1] is on record?
A: The IC50 was less than 50 nM.

Q: And the IC50 [2]?
A: The IC50 was 1.5 to 3 µM.

Q: With CC(=O)N1CCC[C@]12CC=CCCCC1(CCCC=CCCCOC(=O)N3CC[C@@]4(C3)NC(=O)[C@H](CCCCNC(=O)CC[C@@H](C(=O)N[C@@H](C)C(N)=O)NC(=O)[C@H](Cc3csc5ccccc35)NC(=O)[C@H](Cc3ccccc3[N+](=O)[O-])NC4=O)NC(=O)[C@H](Cc3ccccc3)NC(=O)[C@H](C)NC(=O)C(C)(C)NC(=O)[C@H](Cc3cccc(C(=O)O)c3)NC(=O)[C@H](CC(=O)O)NC1=O)NC(=O)[C@H](CC(C)(C)C)NC(=O)[C@H](CC(=O)O)NC2=O (relative stereo) [I-298, Ac-PL3-Asp-Npg-B5-Asp-3COOHF-Aib-Ala-Phe-Lys*3-PyrS2-2NO2F-BztA-GlnR*3-Ala-NH2] as the compound, how does the IC50 [1] read?
A: Its IC50 is less than 50 nM.

Q: What about the IC50 [2] of the same compound?
A: The IC50 was less than 1.5 µM.

Q: How did the IC50 [1] turn out when CC(=O)N1CCC[C@]12CC=CCCCC1(CCCC=CCCCOC(=O)N3CC[C@@]4(C3)NC(=O)[C@H](CCCCNC(=O)CC[C@@H](C(=O)N[C@@H](C)C(N)=O)NC(=O)[C@H](Cc3csc5ccccc35)NC(=O)[C@H](Cc3ccccn3)NC4=O)NC(=O)[C@H](Cc3ccccc3)NC(=O)[C@H](C)NC(=O)C(C)(C)NC(=O)[C@H](Cc3cccc(C(=O)O)c3)NC(=O)[C@H](CC(=O)O)NC1=O)NC(=O)[C@H](CC(C)(C)C)NC(=O)[C@H](CC(=O)O)NC2=O (relative stereo) [I-299, Ac-PL3-Asp-Npg-B5-Asp-3COOHF-Aib-Ala-Phe-Lys*3-PyrS2-2PyrA-BztA-GlnR*3-Ala-NH2] was run?
A: Its IC50 is less than 50 nM.

Q: And the IC50 [2]?
A: Its IC50 is 1.5 to 3 µM.

Q: Which IC50 [1] does the source give for CC(=O)N1CCC[C@]12CC=CCCCC1(CCCC=CCCCOC(=O)N3CC[C@@]4(C3)NC(=O)[C@H](CCCCNC(=O)CC[C@@H](C(=O)N[C@@H](C)C(N)=O)NC(=O)[C@H](Cc3csc5ccccc35)NC(=O)[C@H](Cc3cccnc3)NC4=O)NC(=O)[C@H](Cc3ccccc3)NC(=O)[C@H](C)NC(=O)C(C)(C)NC(=O)[C@H](Cc3cccc(C(=O)O)c3)NC(=O)[C@H](CC(=O)O)NC1=O)NC(=O)[C@H](CC(C)(C)C)NC(=O)[C@H](CC(=O)O)NC2=O (relative stereo) [I-300, Ac-PL3-Asp-Npg-B5-Asp-3COOHF-Aib-Ala-Phe-Lys*3-PyrS2-3PyrA-BztA-GlnR*3-Ala-NH2] here?
A: Its IC50 is less than 50 nM.

Q: What about the IC50 [2] of the same compound?
A: Its IC50 is 3 to 10 µM.

Q: Which IC50 [1] does the source give for CC(=O)N1CCC[C@]12CC=CCCCC1(CCCC=CCCCOC(=O)N3CC[C@@]4(C3)NC(=O)[C@H](CCCCNC(=O)CC[C@@H](C(=O)N[C@@H](C)C(N)=O)NC(=O)[C@H](Cc3csc5ccccc35)NC(=O)[C@H](Cc3c[nH]cn3)NC4=O)NC(=O)[C@H](Cc3ccccc3)NC(=O)[C@H](C)NC(=O)C(C)(C)NC(=O)[C@H](Cc3cccc(C(=O)O)c3)NC(=O)[C@H](CC(=O)O)NC1=O)NC(=O)[C@H](CC(C)(C)C)NC(=O)[C@H](CC(=O)O)NC2=O (relative stereo) [I-302, Ac-PL3-Asp-Npg-B5-Asp-3COOHF-Aib-Ala-Phe-Lys*3-PyrS2-His-BztA-GlnR*3-Ala-NH2] here?
A: Its IC50 is less than 50 nM.

Q: And the IC50 [2]?
A: Its IC50 is greater than 10 µM.

Q: For CC(=O)N1CCC[C@]12CC=CCCCC1(CCCC=CCCCOC(=O)N3CC[C@@]4(C3)NC(=O)[C@H](CCCCNC(=O)CC[C@@H](C(=O)N[C@@H](C)C(N)=O)NC(=O)[C@H](Cc3csc5ccccc35)NC(=O)[C@H](Cc3ccsc3)NC4=O)NC(=O)[C@H](Cc3ccccc3)NC(=O)[C@H](C)NC(=O)C(C)(C)NC(=O)[C@H](Cc3cccc(C(=O)O)c3)NC(=O)[C@H](CC(=O)O)NC1=O)NC(=O)[C@H](C)NC(=O)[C@H](CC(=O)O)NC2=O (relative stereo) [I-304, Ac-PL3-Asp-Ala-B5-Asp-3COOHF-Aib-Ala-Phe-Lys*3-PyrS2-3Thi-BztA-GlnR*3-Ala-NH2], which IC50 [1] is on record?
A: Its IC50 is less than 50 nM.

Q: What about the IC50 [2] of the same compound?
A: The IC50 was 3 to 10 µM.

Q: For CC(=O)N1CCC[C@]12CC=CCCCC1(CCCC=CCCCOC(=O)N3CC[C@@]4(C3)NC(=O)[C@H](CCCCNC(=O)CC[C@@H](C(=O)N[C@@H](C)C(N)=O)NC(=O)[C@H](Cc3csc5ccccc35)NC(=O)[C@H](Cc3ccsc3)NC4=O)NC(=O)[C@H](Cc3ccccc3)NC(=O)[C@H](C)NC(=O)C(C)(C)NC(=O)[C@H](Cc3cccc(C(=O)O)c3)NC(=O)[C@H](CC(=O)O)NC1=O)NC(=O)[C@H](Cc1ccc(O)cc1)NC(=O)[C@H](CC(=O)O)NC2=O (relative stereo) [I-305, Ac-PL3-Asp-Tyr-B5-Asp-3COOHF-Aib-Ala-Phe-Lys*3-PyrS2-3Thi-BztA-GlnR*3-Ala-NH2], which IC50 [1] is on record?
A: Its IC50 is less than 50 nM.

Q: And the IC50 [2]?
A: The IC50 was 3 to 10 µM.

Q: What does the source list for CC(=O)N1CCC[C@]12CC=CCCCC1(CCCC=CCCCOC(=O)N3CC[C@@]4(C3)NC(=O)[C@H](CCCCNC(=O)CC[C@@H](C(=O)N[C@@H](C)C(N)=O)NC(=O)[C@H](Cc3csc5ccccc35)NC(=O)[C@H](Cc3ccsc3)NC4=O)NC(=O)[C@H](Cc3ccccc3)NC(=O)[C@H](C)NC(=O)C(C)(C)NC(=O)[C@H](Cc3cccc(C(=O)O)c3)NC(=O)[C@H](CC(=O)O)NC1=O)NC(=O)[C@H](Cc1c[nH]c3ccccc13)NC(=O)[C@H](CC(=O)O)NC2=O (relative stereo) [I-306, Ac-PL3-Asp-Trp-B5-Asp-3COOHF-Aib-Ala-Phe-Lys*3-PyrS2-3Thi-BztA-GlnR*3-Ala-NH2]?
A: IC50 [1]: < 50 nM; IC50 [2]: > 10 µM

Q: CC(=O)N1CCC[C@]12CC=CCCCC1(CCCC=CCCCOC(=O)N3CC[C@@]4(C3)NC(=O)[C@H](CCCCNC(=O)CC[C@@H](C(=O)N[C@@H](C)C(N)=O)NC(=O)[C@H](Cc3csc5ccccc35)NC(=O)[C@H](Cc3ccsc3)NC4=O)NC(=O)[C@H](Cc3ccccc3)NC(=O)[C@H](C)NC(=O)C(C)(C)NC(=O)[C@H](Cc3cccc(C(=O)O)c3)NC(=O)[C@H](CC(=O)O)NC1=O)NC(=O)[C@H](CO)NC(=O)[C@H](CC(=O)O)NC2=O (relative stereo) [I-307, Ac-PL3-Asp-Ser-B5-Asp-3COOHF-Aib-Ala-Phe-Lys*3-PyrS2-3Thi-BztA-GlnR*3-Ala-NH2] was tested. Which IC50 [1] did it give?
A: Its IC50 is less than 50 nM.

Q: And the IC50 [2]?
A: The IC50 was greater than 10 µM.
